The experiment deals with native GLP-1 receptor (optimized exendin-4 receptor cell line) (UniProt P43220). In words: cell-based or functional assay.

Turning to native exendin-4 (peptide), the EC50, real-time calcium mobilization assay (FLIPR); exendin-4 from Anaspec was 0.075 nM and the EC50, real-time calcium mobilization assay (FLIPR); exendin-4 from Tocris is 0.11 nM.

The record behind these values is patent US20210277074A1.
